Where two headings read alike, the source gives them in different places.
Test system: rats
Settings: P.O.

| Substance | LD50 (Female rats) | LD50 (Male rats) |
| --- | --- | --- |
| N-acetyl-DL-carnosine aluminum salt | > 10,000 mg/kg | > 10,000 mg/kg |
| N-acetyl-L-carnosine aluminum salt [B] | > 10,000 mg/kg | > 10,000 mg/kg |
